Values of other authors as cited in patent US6825040B2, “Method of using a vapor acid test kit” (Mainstream Engineering Corporation, priority 1995, dated 2004).

Details: pH range of the indicator colour change

In the case of `O=[N+]([O-])NCc1c([N+](=O)[O-])cc([N+](=O)[O-])cc1[N+](=O)[O-]`, the “pH Range” value is listed as 10.8 to 13.0.

Only a part of the results on these compounds is given; other tests are left out.
